According to patent publication US20250340556A1, “PYRIMIDOPYRIMIDONE COMPOUNDS AND METHODS OF USE THEREOF” (Soltego, Inc., priority 2022, published 2025):

Tests used:
[1] = test system: living human skin explants; experiment: Melanin in living human skin explants, Fontana-Masson staining (Example 8); type: cell-based; settings: topical, Example 8 conclusion
[2] = test system: B16 4A5 cells; experiment: B16 4A5 melanin content normalised to protein; settings: 72 h; for production of melanin: vs DMSO 0.06%

Row | SMILES | melanin production in living human skin explants [1] | production of melanin ([2]; 1, 0.3 and 0.1 μg/ml) | production of melanin in comparison with the 0.06% DMSO ([2]; 0.3 μg/ml) [%] | production of melanin in comparison with the 0.06% DMSO ([2]; 1 μg/ml) [%] | production of melanin ([2]; 1 and 0.3 μg/ml)
1 | Cc1cccc(C)c1N1Cc2cnc3nc2N(CCC(=O)OCc2cc(ccc2N2CCN(C)CC2)N3)C1=O [SLT-023] | increased melanin production | significantly increased |  |  | 
2 | Cc1cccc(C)c1N1Cc2cnc3nc2N(CCCC(=O)OCc2cc(ccc2N2CCN(C)CC2)N3)C1=O [SLT-026] | increased melanin production |  |  |  | 
3 | Cc1cccc(C)c1N1Cc2cnc3nc2N(CCCCOC(=O)c2cc(ccc2N2CCN(C)CC2)N3)C1=O [SLT-042] | increased melanin production |  |  |  | 
4 | Cc1cccc(C)c1N1Cc2cnc3nc2N(CCCOC(=O)Cc2cc(ccc2N2CCN(C)CC2)N3)C1=O [SLT-048] | increased melanin production |  | 180 | 250 | significantly increase
